From ChEMBL document CHEMBL4406913, “INCB050465 (Parsaclisib), a Novel Next-Generation Inhibitor of Phosphoinositide 3-Kinase Delta (PI3Kδ)” (ACS Med Chem Lett, 2019)

Target: T1, Phosphatidylinositol 4,5-bisphosphate 3-kinase catalytic subunit delta isoform (Homo sapiens, UniProt O00329)
T1 sequence (O00329 whole entry): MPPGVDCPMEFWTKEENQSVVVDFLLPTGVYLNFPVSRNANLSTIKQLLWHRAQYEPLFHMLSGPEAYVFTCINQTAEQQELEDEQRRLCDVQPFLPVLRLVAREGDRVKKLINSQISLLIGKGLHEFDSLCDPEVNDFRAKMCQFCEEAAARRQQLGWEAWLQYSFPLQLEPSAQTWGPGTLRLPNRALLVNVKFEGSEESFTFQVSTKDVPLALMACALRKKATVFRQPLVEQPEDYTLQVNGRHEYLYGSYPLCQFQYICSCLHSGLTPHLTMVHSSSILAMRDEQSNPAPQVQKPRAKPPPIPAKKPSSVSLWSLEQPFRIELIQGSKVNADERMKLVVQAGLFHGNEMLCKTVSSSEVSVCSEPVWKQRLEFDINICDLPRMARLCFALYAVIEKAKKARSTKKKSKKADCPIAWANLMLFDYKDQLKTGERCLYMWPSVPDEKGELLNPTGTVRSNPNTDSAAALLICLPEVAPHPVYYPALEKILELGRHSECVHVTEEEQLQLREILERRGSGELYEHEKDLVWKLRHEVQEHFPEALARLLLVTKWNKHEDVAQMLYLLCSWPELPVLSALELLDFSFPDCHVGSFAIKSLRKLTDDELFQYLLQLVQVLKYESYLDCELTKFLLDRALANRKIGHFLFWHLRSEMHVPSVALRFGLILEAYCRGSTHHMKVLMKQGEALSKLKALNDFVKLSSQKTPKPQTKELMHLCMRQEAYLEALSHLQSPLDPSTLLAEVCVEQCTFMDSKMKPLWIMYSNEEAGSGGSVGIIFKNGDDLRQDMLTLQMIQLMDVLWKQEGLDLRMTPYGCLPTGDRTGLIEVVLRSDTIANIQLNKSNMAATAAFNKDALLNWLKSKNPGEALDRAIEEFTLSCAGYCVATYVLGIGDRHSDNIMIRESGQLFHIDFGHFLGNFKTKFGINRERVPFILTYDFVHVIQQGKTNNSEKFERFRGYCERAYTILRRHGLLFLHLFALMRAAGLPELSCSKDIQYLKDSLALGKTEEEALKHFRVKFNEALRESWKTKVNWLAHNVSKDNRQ

Q: With COc1c([C@H](C)Nc2ncnc3[nH]cnc23)cc(Cl)c(C)c1-c1ccc(S(C)(=O)=O)cc1 as the compound, how does the IC50 read?
A: 3.6 nM

Q: Which IC50 does the source give for C[C@H](Nc1ncnc2[nH]cnc12)c1cc(Cl)c2ccnnc2c1-c1cccc(F)c1 here?
A: 13 nM
